ChEMBL document CHEMBL1151729 (J Med Chem, 2008)

Amino acid sequences for entries named in this document (tags omitted).
UniProt P09382, whole entry: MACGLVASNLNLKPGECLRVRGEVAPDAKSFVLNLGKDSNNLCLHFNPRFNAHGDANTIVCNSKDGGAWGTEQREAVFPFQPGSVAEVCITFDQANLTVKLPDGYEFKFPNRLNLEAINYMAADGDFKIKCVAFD
UniProt P47929, whole entry: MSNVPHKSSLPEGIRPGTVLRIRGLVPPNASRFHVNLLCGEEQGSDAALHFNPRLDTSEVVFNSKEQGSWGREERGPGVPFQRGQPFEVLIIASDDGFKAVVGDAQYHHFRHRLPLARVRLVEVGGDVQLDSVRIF

Experiments:
[1] = target: Galectin-1 (Homo sapiens, UniProt P09382); assay: Binding affinity to galectin 1 at 20 degC by fluorescence polarization assay
[2] = target: Galectin-9 (Homo sapiens, UniProt O00182); assay: Binding affinity to galectin 9N terminal domain at 0 degC by fluorescence polarization assay
[3] = target: Galectin-7 (Homo sapiens, UniProt P47929); assay: Binding affinity to galectin 7 at 0 degC by fluorescence polarization assay

For `OC[C@H]1O[C@@H](S[C@@H]2O[C@H](CO)[C@H](O)[C@H](O)[C@H]2O)[C@H](O)[C@@H](O)[C@H]1O` [THIODIGALACTOSIDE], the Kd [1] was 78 µM, the Kd [2] was 38 µM and the Kd [3] was 160 µM.
